# Source: ChEMBL document CHEMBL5726154, “Substituted heterocyclic derivative, preparation method and use thereof” (2019)
# Target: T1, N-acylethanolamine-hydrolyzing acid amidase (Homo sapiens, UniProt Q02083)
# T1 sequence (Q02083 whole entry): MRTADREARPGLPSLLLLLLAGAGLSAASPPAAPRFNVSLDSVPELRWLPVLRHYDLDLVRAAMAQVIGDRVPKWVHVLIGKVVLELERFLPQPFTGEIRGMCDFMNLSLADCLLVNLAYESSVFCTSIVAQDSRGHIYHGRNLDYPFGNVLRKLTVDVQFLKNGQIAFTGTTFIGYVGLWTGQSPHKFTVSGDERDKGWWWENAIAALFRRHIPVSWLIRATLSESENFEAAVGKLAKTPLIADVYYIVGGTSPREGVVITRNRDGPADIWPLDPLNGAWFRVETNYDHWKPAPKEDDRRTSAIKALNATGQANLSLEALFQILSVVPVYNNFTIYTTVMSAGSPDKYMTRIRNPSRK
# Experiment: Determining Endocannabinoid Hydrolase Activity: In the Experimental example, endocannabinoid hydrolases used were Fatty Acid Amide Hydrolase (FAAH) and N-acylethanolamide hydrolyzing acid amidase (NAAA), which were prepared by the method described in the document (PMCID: PMC3423427, PMC3723234, PMC2692831, PMC3382457). The preparation method was as followed: a plasmid (pCDNA3.1/NAAA or pCDNA3.1/FAAH) carrying a whole NAAA/FAAH gene was constructed, wherein the plasmid carried Cytomegalovirus (CMV) promoter and Neomycin selectable gene; the plasmid was transformed into HEK-293 cell via lipid medium, stable cell lines expressing NAAA/FAAH at a high level were obtained by G418 screening and Western-blot method. HEK-293 recombinant cells were cultured and collected, washed with PBS for 2-3 times, and ultrasonically treated in 20 mM Tris-HCl containing 0.32 M sucrose, then repeatedly frozen and thawed twice, and then centrifuged at 4° C., 800 g for 15 min. The supernatant (i.e., the desired protein) was collected, the protein concentration was determined by BCA method, and the protein was diluted to a concentration of 1 mg/mL, and sub-packaged and stored in a refrigerator at −80° C. for further use.In the Experimental example, PBS solution used was prepared as followed: 8 g NaCl, 0.2 g KCl, 1.44 g Na2HPO4, and 0.24 g KH2PO4 were dissolved in 1 L ultrapure water, and the resultant solution was subjected to moist heat sterilization and stored at 4° C.30 μL (1 mg/mL) endocannabinoid hydrolase was added to a sample vial, and 2 μL DMSO (Blank control group) or a different concentration of a test compound (Compounds 1-46 prepared in the Examples according to the invention) was further added. The reaction was carried out at 37° C. for 10 min. 170 μL buffer (the buffer consisted of 50 mM disodium Hydrogen Phosphate, 0.1% Triton X-100, 3 mM DTT, 150 μL) containing enzymatic hydrolysis substrate (the substrate was a heptadecenoyl ethanolamine containing a double bond and 17 carbon atoms, abbreviated as 17:1 FAE) was further added, wherein the concentration of 17:1 FAE was 5 μM. The reaction was carried out at 37° C. for 30 min, and 200 μL methanol solution containing internal standard (the internal standard was margaric acid, at a concentration of 1 nmol) was then added to stop the reaction. LC-MS was used to determine the yield of the hydrolysate 17:1 FA (i.e., a heptadecenoic acid containing a double bond) of 17:1 FAE, then a graph was plotted with Graphpad Prism 5. Thereby, the IC50 of the test compound on endocannabinoid hydrolase was determined.By the method above, the inhibitory effects of the Compounds 1-46 prepared in the invention on NAAA and FAAH were determined.
row,IC50,Structure (SMILES)
1,55 µM,O=C(Cc1ccc(-c2ccccc2)cc1)N1CCOC1=O
2,79.2 µM,O=C(Cc1cccc(-c2ccccc2)c1)N1CCOC1=O

# Second part, the compound before the results:
row,Structure (SMILES),IC50
1,O=C(CCCCCn1ccc(=O)[nH]c1=O)N1CCOC1=O,15.8 µM
2,O=C(CCCCCc1ccc(O)c(O)c1)N1CCOC1=O,0.027 µM
3,O=C(Cc1cccc(OCc2ccccc2)c1)N1CCOC1=O,65.3 µM
